{"sequences": {"note": "By UniProt entry, the sequences of proteins in these tests, tags left out. Where a name states a change or a piece, a line headed by the entry shows the natural chain unless it says otherwise.", "UniProt Q8I302": "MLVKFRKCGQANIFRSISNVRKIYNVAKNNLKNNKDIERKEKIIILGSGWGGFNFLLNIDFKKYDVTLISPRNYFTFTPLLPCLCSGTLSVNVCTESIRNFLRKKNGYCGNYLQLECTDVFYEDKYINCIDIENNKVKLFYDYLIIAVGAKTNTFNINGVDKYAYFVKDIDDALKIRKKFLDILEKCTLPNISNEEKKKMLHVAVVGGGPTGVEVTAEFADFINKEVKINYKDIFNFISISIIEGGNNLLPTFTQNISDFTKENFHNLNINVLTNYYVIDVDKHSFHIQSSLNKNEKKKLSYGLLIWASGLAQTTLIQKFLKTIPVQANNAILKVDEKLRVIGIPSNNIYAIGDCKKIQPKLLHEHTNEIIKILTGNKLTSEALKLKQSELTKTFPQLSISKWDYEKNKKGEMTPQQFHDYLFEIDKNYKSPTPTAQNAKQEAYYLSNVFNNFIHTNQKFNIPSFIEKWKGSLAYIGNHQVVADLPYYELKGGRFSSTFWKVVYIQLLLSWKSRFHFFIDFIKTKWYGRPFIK"}, "source": "paper PMC4422330", "about": "(Bioorganic & medicinal chemistry letters, 2008)", "key": {"pfNDH2": {"target": "pfNDH2 (Plasmodium falciparum, UniProt Q8I302)", "assay": "biochemical", "format": "biochemical"}, "pfDHOD": {"target": "T1, pfDHOD (Plasmodium falciparum, UniProt Q08210)", "T1 sequence (Q08210 24-569)": "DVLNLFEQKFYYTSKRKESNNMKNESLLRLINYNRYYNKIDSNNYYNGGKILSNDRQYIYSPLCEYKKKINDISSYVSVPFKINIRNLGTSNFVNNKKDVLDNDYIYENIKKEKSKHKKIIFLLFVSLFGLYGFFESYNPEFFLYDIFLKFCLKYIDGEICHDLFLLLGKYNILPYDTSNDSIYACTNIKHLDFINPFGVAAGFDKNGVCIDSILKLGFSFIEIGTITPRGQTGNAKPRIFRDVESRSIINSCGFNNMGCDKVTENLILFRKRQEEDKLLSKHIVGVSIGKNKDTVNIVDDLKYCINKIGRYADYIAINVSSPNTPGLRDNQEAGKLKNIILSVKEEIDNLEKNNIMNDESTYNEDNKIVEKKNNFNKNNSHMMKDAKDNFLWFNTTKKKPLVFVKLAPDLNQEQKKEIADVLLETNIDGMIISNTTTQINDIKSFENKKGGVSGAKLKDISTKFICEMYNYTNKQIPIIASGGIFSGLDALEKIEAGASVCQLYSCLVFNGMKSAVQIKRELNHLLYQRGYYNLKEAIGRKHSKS", "assay": "biochemical"}}, "data": [{"smiles": "[Cl-].c1ccc2c(c1)[I+]c1ccccc1-2", "note": "[DPI, Dibenziodolium chloride]", "values": [{"measurement": "IC50", "setting": "pfNDH2", "result": "> 10", "unit": "µM"}, {"measurement": "inhibition of pfNDH2 activity (in words)", "setting": "pfNDH2; purified recombinant pfNDH2, concentrations of up to 10 µM", "result": "do not inhibit"}, {"measurement": "IC50", "setting": "pfDHOD", "result": "> 10", "unit": "µM"}]}]}
